Assay [1] is filed under the species Mus musculus. The assay is described as follows: Compound was evaluated for its antagonist potency against delta agonist deltorphin I, by MVD assay(mouse vas deferens).
The species entered for assay [2] is Mus musculus. The assay is described as follows: Compound was evaluated for its antagonist potency against delta agonist […] by MVD assay(mouse vas deferens).

Molecules are shown by their SMILES.

Consider `Cc1cc(O)cc(C)c1C[C@H](N)C(=O)N1Cc2ccccc2C[C@H]1C(=O)N[C@@H](Cc1ccccc1)C(=O)N[C@@H](Cc1ccccc1)C(N)=O`, for which the Ke in the assay listed under Mus musculus [1] turned out to be 0.26 nM; in the assay filed under Mus musculus [2] it was 0.209 nM.

For the origin of these results see ChEMBL document CHEMBL1132372, “The opioid mu agonist/delta antagonist DIPP-NH(2)[Psi] produces a potent analgesic effect, no physical dependence, and less tolerance than morphine in rats” (J Med Chem, 1999).
